Laboratory results published in US7759339B2, “Hydroxysteroid dehydrogenase inhibitors” (Takeda San Diego, Inc., priority 2005, dated 2010).

Chains of the proteins cited; added tags and fusions are not shown. Residues count along the entry.
UniProt P28845, 24-292: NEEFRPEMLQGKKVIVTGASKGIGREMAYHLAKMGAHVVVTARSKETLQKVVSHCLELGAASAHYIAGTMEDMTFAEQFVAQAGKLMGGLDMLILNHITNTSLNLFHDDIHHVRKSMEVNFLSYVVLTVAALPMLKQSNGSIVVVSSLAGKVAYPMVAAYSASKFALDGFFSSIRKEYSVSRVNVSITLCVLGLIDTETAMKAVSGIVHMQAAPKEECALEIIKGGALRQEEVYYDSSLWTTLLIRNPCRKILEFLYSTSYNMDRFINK

Biological target: T1, 11b-HSD1 (Homo sapiens, UniProt P28845)
T1 construct: made in house; host or cells: E. coli DH10b-Tir
Test: in vitro enzymatic 11b-HSD1 dehydrogenase activity assay
Type: biochemical
Conditions: 11b-HSD1 dehydrogenase assay; 10 μM each of cortisol and NADP+, 50 nM enzyme, 60 minutes at room temperature; reference point for this assay
Description: The activity of compounds as 11b-HSD1 inhibitors may be assayed in vitro, in vivo or in a cell line. Provided below is an in vitro enzymatic 11b-HSD1 dehydrogenase activity assay for activity against 11b-HSD1.
Purified 11b-HSD1 may be obtained as follows: Residues 24 to 292 of 11-β-hydroxysteroid dehydrogenase isoform 1 was amplified from IMAGE clone 5193867 (ATCC clone 7277078) using PCR with the primers hsd1—24-f: 5′-[…]-3′ (SEQ. ID No. 1) and hsd1-292-r: 5′-[…]-3′ (SEQ. ID No. 2). The resulting PCR product was topocloned into the pBAD-ThioE vector (Invitrogen) that was modified by inserting a DNA sequence that codes for […] at the cloning site and adapted for TOPOcloning PCR (Invitrogen). […]
The inhibitory properties of compounds relative to 11b-HSD1 may be determined using a white 384-well-plate format under the following reaction conditions: 50 mM Tris pH 7.5, 150 mM NaCl, 0.1 mM EDTA, 0.01% Brij35, 10 μM each of cortisol and NADP^+, 1% DMSO. Reaction product may be determined quantitatively by fluorescence intensity using a fluorescence plate reader (Molecular Devices Gemini) with a 340 nm excitation wavelength and a 460 nm emission wavelength. […]
IC50 values may be calculated by non-linear curve fitting of the compound concentrations and fluorescence intensities to the standard IC50 equation.

IC50: 100 nM
SMILES: CC1(C)[C@@H](OC(=O)CCC(=O)O)CC[C@]2(C)[C@H]3C(=O)C=C4[C@@H]5C[C@@](C)(C(=O)O)CC[C@]5(C)CC[C@@]4(C)[C@]3(C)CC[C@@H]12 [carbenoxolone]
